In this assay the test system is Wnt/β-catenin signaling. Description: Wnt/β-catenin signaling (TOPFlash) reporter luciferase assay in HEK293-TOP cells. It counts as cell-based. Here is the method:
Luciferase reporter assay. HEK293-TOP cells were seeded in 24-well plates. Cells were treated with A3334 at a concentration of 1, 5, and 10 μM for 24 h. Total cell lysates were extracted with 35 μl of 5× Reporter Lysis Buffer per well according to the manufacturer's instructions (Promega). A total of 35 μl of luciferin was added and luciferase activity was measured using a Fluorstar Optima microplate reader.
Wnt/β-catenin signaling reporter luciferase assay. HEK293-TOP cells were seeded were seeded in 96-well plates at a density of 2.5×10^4 cells per well. Cells were treated with individual chemicals at a concentration of 1, 5, 10 µM for 24 h. Total cell lysates were extracted with 25 µl of 5× Reporter Lysis Buffer per well according to the manufacturer's instruction (Promega, Madison, WI). Luciferin (25 µl) was added and luciferase activity was measured using FLUOSTAR (BMG labtech, Offenburg, Germany).

Experimental findings from patent US20240425457A1, “COMPOSITIONS AND METHODS FOR SUPPRESSING AND/OR TREATING METABOLIC DISEASES AND/OR A CLINICAL CONDITION THEREOF” (CK Biotech Inc., priority 2018, published 2024) are described below.

With `O=C1Nc2cc(Br)ccc2/C1=C1/Nc2ccccc2/C1=N\O` [Compound 8, 6-bromoindirubine-3′-oxime], the “Wnt/β-catenin (TOPFlash) reporter activity” value was “showed effectiveness in the activation of Wnt/β-catenin pathway”.
